Reference: ChEMBL document CHEMBL1125379, “Binding of phenylalkylamine derivatives at 5-HT1C and 5-HT2 serotonin receptors: evidence for a lack of selectivity” (J Med Chem, 1992)

Sequences of proteins named here, by UniProt entry; tags and fusion partners are left off.
UniProt P30994, whole entry, looked up: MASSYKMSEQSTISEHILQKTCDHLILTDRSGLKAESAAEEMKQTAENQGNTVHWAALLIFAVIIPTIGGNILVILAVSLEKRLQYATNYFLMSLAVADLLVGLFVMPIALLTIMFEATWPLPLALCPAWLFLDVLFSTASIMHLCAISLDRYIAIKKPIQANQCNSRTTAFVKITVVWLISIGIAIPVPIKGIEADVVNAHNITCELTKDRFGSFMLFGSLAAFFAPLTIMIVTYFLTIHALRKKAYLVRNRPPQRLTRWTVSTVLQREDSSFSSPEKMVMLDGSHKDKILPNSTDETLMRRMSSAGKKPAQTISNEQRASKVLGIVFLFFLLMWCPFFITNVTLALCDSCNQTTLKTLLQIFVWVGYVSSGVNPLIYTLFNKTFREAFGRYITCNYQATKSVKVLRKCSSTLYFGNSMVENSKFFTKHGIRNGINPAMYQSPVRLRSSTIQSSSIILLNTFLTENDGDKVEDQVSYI
UniProt P14842, whole entry, looked up: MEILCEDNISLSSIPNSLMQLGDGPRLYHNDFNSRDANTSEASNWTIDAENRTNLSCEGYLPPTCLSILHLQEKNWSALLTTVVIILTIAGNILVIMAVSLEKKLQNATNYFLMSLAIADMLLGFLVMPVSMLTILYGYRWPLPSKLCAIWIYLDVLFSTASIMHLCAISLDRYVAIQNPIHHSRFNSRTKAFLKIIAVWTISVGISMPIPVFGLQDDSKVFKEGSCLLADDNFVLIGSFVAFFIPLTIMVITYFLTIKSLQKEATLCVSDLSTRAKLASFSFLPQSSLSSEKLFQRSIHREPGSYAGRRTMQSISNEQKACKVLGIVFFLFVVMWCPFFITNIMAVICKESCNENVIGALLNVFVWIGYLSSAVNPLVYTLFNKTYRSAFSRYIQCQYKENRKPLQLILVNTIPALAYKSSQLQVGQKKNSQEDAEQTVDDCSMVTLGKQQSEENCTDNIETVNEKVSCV

Columns and labels:
[1] = molecular target: T1, 5-hydroxytryptamine receptor 2C (Rattus norvegicus, UniProt P08909); assay: Binding affinity towards 5-hydroxytryptamine 1C receptor from frontal cortical regions of male Sprague-Dawley rat homogenates, using [3H]mesulergine as radioligand
T1 sequence (P08909 whole entry): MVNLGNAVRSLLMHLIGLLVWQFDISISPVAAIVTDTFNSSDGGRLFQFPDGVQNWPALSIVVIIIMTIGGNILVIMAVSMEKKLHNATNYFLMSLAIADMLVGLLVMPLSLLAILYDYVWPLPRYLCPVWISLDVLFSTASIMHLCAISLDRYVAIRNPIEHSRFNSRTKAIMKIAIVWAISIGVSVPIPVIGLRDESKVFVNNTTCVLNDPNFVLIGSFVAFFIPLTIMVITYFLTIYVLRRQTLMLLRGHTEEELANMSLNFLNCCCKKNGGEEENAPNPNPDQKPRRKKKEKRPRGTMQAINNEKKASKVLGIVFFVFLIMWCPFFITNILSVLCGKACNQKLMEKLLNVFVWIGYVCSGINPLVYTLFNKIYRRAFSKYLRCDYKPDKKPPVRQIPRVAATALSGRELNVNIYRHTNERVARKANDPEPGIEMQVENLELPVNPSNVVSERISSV
In short: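 Male Sprague–Dawley rat frontal cortex membranes were washed in Tris/EDTA/MgCl2 pH 7.4 with a 37 °C preincubation and resuspended with ascorbate and pargyline. Each tube held 10 mg wet tissue, 1 nM [3H]mesulergine and 100 nM spiperone to block 5-HT2 sites. Nonspecific binding was set with 1 μM mianserin. Tubes were incubated 15 min at 37 °C, in triplicate, then filtered. Ki = IC50/(1+D*/KD*).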

[2] = molecular target: Serotonin 2 (5-HT2) receptor (Rattus norvegicus) (UniProt P30994+P08909+P14842); assay: 5-HT1C selectivity was defined as the ratio between Ki(5-HT2)/Ki(5-HT1C); format: protein assay
In short: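 Ratio of Ki values from rat frontal cortex competition assays. For 5-HT2: 0.4 nM [3H]ketanserin, with 1 μM cinanserin nonspecific. For 5-HT1C: 1 nM [3H]mesulergine plus 100 nM spiperone, with 1 μM mianserin nonspecific. Both were run 15 min at 37 °C in triplicate. Ki = IC50/(1+D*/KD*).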

SMILES | Ki [1] [µM] | Selectivity [2]
COc1cc(CC(C)N)c(OC)cc1Br (configuration not stated) [BROLAMFETAMINE] | 0.07 | –
COc1cc(C[C@H](C)N)c(OC)cc1Br | 0.084 | –
CCc1cc(OC)c(CC(C)N)cc1OC (configuration not stated) | 0.101 | 1
COc1cc(C[C@@H](C)N)c(OC)cc1Br | 0.05 | –
COc1cc(OC)c(OC)cc1CC(C)N (configuration not stated) | 2.67 | 0.5
